Laboratory results taken from ChEMBL document CHEMBL1131589, “Derivation of a pharmacophore model for anandamide using constrained conformational searching and comparative molecular field analysis” (J Med Chem, 1998).
pKi: −log10 of the molar value.

Protein sequences, listed by entry. Tags and fused reporters are not part of them.
UniProt P20272, whole entry: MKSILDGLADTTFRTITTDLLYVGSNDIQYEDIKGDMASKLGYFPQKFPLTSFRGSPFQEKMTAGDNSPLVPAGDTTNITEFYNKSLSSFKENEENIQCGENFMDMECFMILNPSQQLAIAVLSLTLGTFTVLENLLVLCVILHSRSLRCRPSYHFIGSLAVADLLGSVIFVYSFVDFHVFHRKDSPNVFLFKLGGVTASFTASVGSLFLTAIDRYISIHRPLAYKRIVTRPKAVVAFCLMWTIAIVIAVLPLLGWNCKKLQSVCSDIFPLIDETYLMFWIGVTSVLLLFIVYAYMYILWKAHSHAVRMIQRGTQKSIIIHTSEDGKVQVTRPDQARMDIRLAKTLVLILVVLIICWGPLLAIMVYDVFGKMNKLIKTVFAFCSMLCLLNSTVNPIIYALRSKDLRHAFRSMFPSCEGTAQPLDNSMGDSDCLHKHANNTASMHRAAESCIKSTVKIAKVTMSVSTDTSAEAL

Target: Cannabinoid receptor 1 (Rattus norvegicus, UniProt P20272)
Experiment: Displacement of [3H]CP-55940 binding to Cannabinoid receptor 1 in rat brain membranes
Assay type: cell membranes

Structure (SMILES): CCCCC/C=C\C/C=C\C/C=C\C/C=C\CCCC(=O)NCCO [ANANDAMIDE]
- pKi: 7.66
